# Target: T1, opioid δ receptor (Rattus norvegicus, UniProt P33533)
# T1 construct: A membrane fraction of opioid δ receptor was prepared from the rat forebrain; from tissue; host or cells: rat forebrain membrane fraction
# Assay: Binding affinity for opioid δ receptor ([3H]-Naltrindole binding experiment)
# Settings: membrane fraction from rat forebrain; [3H]-Naltrindole 1 nM; 25° C., 90 minutes; Ki calculated from IC50 by Cheng-Prusoff equation
row,Structure (SMILES),Ki [nM]
1,"O=C(c1ccc(Cc2ccccc2OCCN2CCC(n3c(=O)[nH]c4ccccc43)CC2)cc1)N1CCCC1 [Example 15, 4-(1,3-Dihydro-2H-benzimidazol-2-on-1-yl)-1-[2-[2-(4-pyrrolidinocarbonyl-benzyl)phenoxy]ethyl]piperidine]",281
2,"CC(C)N(C(=O)c1ccc(Cc2ccccc2OCCN2CCC3(CC2)C(=O)NCN3c2ccccc2)cc1)C(C)C [Example 32, 8-[2-[2-(4-Diisopropylcarbamoylbenzyl)phenoxy]ethyl]-1-phenyl-1,3,8-triazaspiro[4,5]decan-4-one]",517
3,"CCN(CC)C(=O)c1ccc(Cc2ccccc2OCCN2CCC3(CC2)C(=O)N(C)CN3c2ccccc2)cc1 [Example 36, 8-[2-[2-(4-Diethylcarbamoylbenzyl)phenoxy]ethyl]-3-methyl-1-phenyl-1,3,8-triazaspiro[4,5]decan-4-one]",240
4,"CCN(CC)C(=O)c1ccc(Cc2ccccc2OCCN2CCC(C(C)=O)(c3ccccc3)CC2)cc1 [Example 49, 4-Acetyl-1-[2-[2-(4-diethylcarbamoylbenzyl)phenoxy]ethyl]-4-phenylpiperidine]",943
5,"CC(C)COC(=O)c1ccc(Cc2ccccc2OCCN2CCC(n3c(CO)nc4ccccc43)CC2)cc1 [Example 103, 1-[2-[2-(4-Isobutyloxycarbonylbenzyl)phenoxy]ethyl]-4-(2-hydroxymethyl-1H-benzimidazol-1-yl)piperidine]",73
6,"CCC(C)C(=O)c1ccc(Cc2ccccc2OCCN2CCC(n3c(CO)nc4ccccc43)CC2)cc1 (stereo not drawn) [Example 110, 4-(2-Hydroxymethyl-1H-benzimidazol-1-yl)-1-[2-[2-[4-(2-methylbutyryl)benzyl]phenoxy]ethyl]piperidine]",88

# Source: patent publication US6916822B2, “Phenoxyalkylamine derivatives useful as opioid δ receptor agonists” (Meiji Seika Kaisha, Ltd., priority 2000, dated 2005)
